Source: ChEMBL document CHEMBL5223123, “Synthesis and pharmacological characterization of multiply substituted 2H-chromene derivatives as P2Y6 receptor antagonists” (Bioorg Med Chem Lett, 2022)

Amino acid sequences for entries named in this document (tags omitted). A change or cut given only in a name is not applied to a line headed by its entry.
UniProt P51582: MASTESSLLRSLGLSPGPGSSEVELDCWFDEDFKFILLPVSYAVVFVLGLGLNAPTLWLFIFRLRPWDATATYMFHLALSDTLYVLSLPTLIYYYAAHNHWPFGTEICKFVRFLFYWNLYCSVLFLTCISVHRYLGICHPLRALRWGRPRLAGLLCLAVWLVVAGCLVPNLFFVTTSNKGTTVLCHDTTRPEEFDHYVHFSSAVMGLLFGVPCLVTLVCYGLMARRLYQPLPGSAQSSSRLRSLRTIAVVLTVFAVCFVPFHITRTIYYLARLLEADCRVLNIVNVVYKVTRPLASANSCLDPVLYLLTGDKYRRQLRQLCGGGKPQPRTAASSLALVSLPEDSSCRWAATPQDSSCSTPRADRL
UniProt P41231: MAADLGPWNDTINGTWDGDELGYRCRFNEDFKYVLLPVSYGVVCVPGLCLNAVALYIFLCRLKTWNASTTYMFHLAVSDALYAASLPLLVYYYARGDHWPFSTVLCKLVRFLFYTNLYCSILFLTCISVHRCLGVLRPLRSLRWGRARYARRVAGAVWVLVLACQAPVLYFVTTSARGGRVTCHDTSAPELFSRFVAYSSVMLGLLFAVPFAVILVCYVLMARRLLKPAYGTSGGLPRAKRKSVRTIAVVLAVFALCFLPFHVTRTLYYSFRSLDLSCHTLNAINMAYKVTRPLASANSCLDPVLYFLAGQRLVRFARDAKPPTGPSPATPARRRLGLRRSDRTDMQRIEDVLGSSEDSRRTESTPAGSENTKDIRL
UniProt P49652: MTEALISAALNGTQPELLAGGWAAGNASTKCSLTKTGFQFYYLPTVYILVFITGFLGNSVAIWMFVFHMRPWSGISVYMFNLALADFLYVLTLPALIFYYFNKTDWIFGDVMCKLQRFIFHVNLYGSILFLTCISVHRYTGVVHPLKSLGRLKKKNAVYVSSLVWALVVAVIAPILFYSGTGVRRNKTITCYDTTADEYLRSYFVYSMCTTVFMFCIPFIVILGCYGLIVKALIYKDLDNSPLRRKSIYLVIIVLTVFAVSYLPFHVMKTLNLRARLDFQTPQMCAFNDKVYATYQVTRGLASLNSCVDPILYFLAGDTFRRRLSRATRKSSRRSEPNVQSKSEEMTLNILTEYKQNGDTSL

Legend:
Type in all cases: cell-based
Set-up in all cases: scale not given: the % may be the effect or the level left
[1] = target: P2Y purinoceptor 4 (Homo sapiens) (UniProt P51582); test: Antagonist activity at human P2Y4R expressed in human 1321N1 cells assessed as inhibition of […] calcium mobilization at 100 uM by FLIPR assay relative to control
[2] = target: P2Y purinoceptor 2 (Homo sapiens) (UniProt P41231); test: Antagonist activity at human P2Y2R expressed in human 1321N1 cells assessed as inhibition of […] calcium mobilization at 100 uM by FLIPR assay relative to control
[3] = target: P2Y purinoceptor 1 (Meleagris gallopavo) (UniProt P49652); test: Antagonist activity at Meleagris P2Y1R expressed in human 1321N1 cells assessed as inhibition of […] calcium mobilization at 100 uM by FLIPR assay relative to control

Measured: Activity

O=[N+]([O-])C1=Cc2cc(F)ccc2OC1C(F)(F)F (racemic)
< 30%: all assays above
